The test system of assay [1] is HaCaT cells that express EGFR. Description: Flow cytometry binding to HaCaT cells (anti-FLAG detection). The assay is classed as cell-based. The note with it: before vs after MMP-9.
In assay [2] the test system is Fab portion of Trastuzumab. Nature of the assay: SPR of H4Fc binding to Fab portion of Trastuzumab immobilized on CM5 chip.
In another assay the test system is SKBR3 cells. Nature of the assay: FACS: H4Fc inhibition of Alexa 488 labeled Trastuzumab binding to SKBR3 cells. The assay is classed as cell-based. The settings on record: MMP9 overnight at 37° C. The method, then: Alexa 488 labeled Trastuzumab was incubated with either H4Fc's at a 1:1 or 1:2 ratio for 20 min at room temperature, and then MMP9 was added for incubated an overnight incubation at 37° C. The mixtures were then applied to trypsinized SKBR3 cell suspensions for 1 hr, washed thoroughly, and subjected to FACS analysis.

“Also recorded” adds a separate entry of the source.

B1: Masked 425: sEGFRdIII (S460P/G461N) mask, MMP-9 cleavable linker, scFv 425, FLAG and H6 tags; SEQ ID NO:6 (protein)
chain: MRPSGTAGAALLALLAALCPASRARKVCNGIGIGEFKDSLSINATNIKHFKNCTSISGDLHILPVAFRGDSFTHTPPLDPQELDILKTVKEITGFLLIAAWPENRTDLHAFENLEIIRGRTKMEGQFSLAVVSLNITSLGLRSLKEISDGDVIISGNKNLCYANTINWKKLFGTSGQKTKIISNRGENSCKATGQVCHALCSPEGCWGPEPKDCVSCRNVSRGRECCSRGGGSGGGSGGGSVPLSLYSGSTSGSGKSSEGSGSGAQGELVMTQSPAIMSASPGEKVTMTCSASSSVTYMYWYQQKPGSSPRLLIYDTSNLASGVPVRFSGSGSGTSYSLTISRMEAEDAATYYCQQWSSHIFTFGSGTKLEIKGGGGSGGGGSGGGGSQVQLVESGAELVKPGASVKLSCKASGYTFTSHWMHWVKQRAGQGLEWIGEFNPSNGRTNYNEKFKSKATLTVDKSSSTAYMQLSSLTSEDSAVYYCASRDYDYDGRYFDYWGQGTTLTVSDYKDDDDKTGHHHHHH
For the molecule B1, in assay [1], the “dependence of HaCaT cell binding on MMP-9 digestion” value was “little dependence on MMP-9 digestion; also recorded: does not exhibit an MMP-9 dependent increase in binding”.

B2: wildtype H4Fc: H4Fc mask with the wildtype (cleavable) MMP9 cleavage site in the linker (protein)
chain: CHQLCARGHCWGPGPTQCVNCSQFLRGQECVEECRVLQGLPREYVNARHCLPCHPECQPQNGSVTCFGPEADQCVACAHYKDPPFCVARCPSGVKPDLSYMPIWKFPDEEGACQPCPINCGSRSGGTSGGGSVPLSLYSGSTSGSGKSSEGSGQAS
modifications: left off: a dimerising Fc or GST
notes: H4Fc mask with the wildtype (cleavable) MMP9 cleavage site in the linker
In the case of B2, in assay [2], the ka stood at 13770 M⁻¹ s⁻¹ and the kd was found to be 0.0008641 s⁻¹. Moreover, the “effect of MMP9 addition on Trastuzumab binding to cells” value in the assay on SKBR3 cells is listed as “restored some binding of the mAb to cells”.

Values taken from patent US11311622B2, “Development of masked therapeutic antibodies to limit off-target effects” (CITY OF HOPE, priority 2010, dated 2022).
